According to patent publication US20250115628A1, “FLUORINATED FLUOROPHORES” (HOWARD HUGHES MEDICAL INSTITUTE, priority 2023, published 2025):
Read-outs that look alike come from different tables or passages of the source.

Tests used:
[1] = General UV-vis and fluorescence spectroscopy; format: physicochemical; settings: rhodamine derivatives; 10 mM HEPES, pH 7.3
Method: Spectroscopy was performed using 1^−cm path length, 3.5^−mL quartz cuvettes or 1^−cm path length, 1.4^−mL semi-micro quartz cuvettes from Starna Cells. All measurements were taken at ambient temperature (22±2° C.). Absorption spectra were recorded on a Cary Model 100 spectrometer (Agilent), and fluorescence spectra were recorded on a Cary Eclipse fluorometer (Varian). The spectra, maximum absorption wavelength (labs), extinction coefficient at λabs (8), and maximum emission wavelength (em) were measured in 10 mM HEPES, pH 7.3 buffer (rhodamines and Malachite Green derivative 49) or 0.1 M NaOH (fluoresceins); the reported values for e are averages (n=3). Normalized spectra are shown for clarity.

[2] = rhodamine derivatives; 10 mM HEPES, pH 7.3; data from the inventors' published work; cited from earlier work
[3] = rhodamine derivatives; 10 mM HEPES, pH 7.3; data from the inventors' published work; cited from earlier work; remark: listed apart in the source

[2H]C1([2H])N(c2ccc3c(c2)C(C)(C)C2=CC(=[N+]4C([2H])([2H])C([2H])([2H])C([2H])([2H])C4([2H])[2H])C=CC2=C3c2c(F)c(F)c(F)c(F)c2C(=O)[O-])C([2H])([2H])C([2H])([2H])C1([2H])[2H] [compound 40, JFX637]
λem [1]: 654 nm

Si-Q-rhodamine [compound 95]
Φf [2]: 0.38 | ε [3]: 77,000 M^−1cm^−1 | λem [3]: 654 nm
